pIC50: −log10 of the molar value.
Target: MAPKAP-K2 (Homo sapiens, UniProt P49137)
Assay: MAPKAP-K2 enzyme activity inhibition assay, Method B (33P-ATP, MultiScreen-PH plate)
Settings: read-out: Inhibitory activity (MAPKAP-K2 IC50 class), recombinant human MAPKAP-K2, 0.5% DMSO, 30 min room temperature
Method: The assay of inhibitory activity was performed according to Method A described below for Compound No. 1, 2, 3, 4, 20, 21, 22, 23, 24, 25, 26, 79, 80 and 81, and Method B described below for the other compounds.
A compound was dissolved in […] to make its concentration to 20 mmol/L, and the resultant solution was stored at −20° C. The stock solution was sequentially diluted with DMSO to prepare a solution having a 200-fold concentration of the required range. Further the solution was diluted with water to 1:20 to prepare a solution having a 10-fold concentration of the required range, and an aliquot of 5 μL of each solution was used for every reaction with 50 μL. During the continuous dilution of all compounds, the final DMSO concentration was maintained at 0.5%. Compounds were routinely tested at a final concentration ranging from 100 μmol/L to 0.03 μmol/L, but were sometimes tested at a lower concentration depending upon their activity.
The reaction was initiated by adding 25 μL of a peptide substrate solution [60 μmol/L substrate peptide, 20 μmol/L ATP, 50 mmol/L Tris buffer (pH 7.5), 0.1 mmol/L EGTA, 0.1% β-mercaptoetanol, 20 mmol/L magnesium acetate, and 0.1 μCi [γ-33P]ATP (specific radio activity: approximately 110 TBq/mmol)] to 5 μL of a 5% DMSO solution of the test compound and subsequently adding 20 μL of a MAPKAP-K2 enzyme solution [10 mU recombinant human MAPKAP-K2, 50 mmol/L Tris buffer (pH 7.5), 0.1 mmol/L EGTA, 0.1% β-mercaptoethanol, 0.1% BSA]. After performing the reaction for 30 min at room temperature, an equivalent volume of 200 mmol/L phosphoric acid solution was added to terminate the reaction. Subsequently, 90 μL of the reaction product was adsorbed on a MultiScreen-PH Plate (Millipore) and then rinsed with 100 mmol/L phosphoric acid solution. After drying the plate, 30 μL of MicroScint-O (Packard BioScience) was added, and further the count per minute was measured by a scintillation counter to determine the inhibitory activity. The substrate peptide was Lys-Lys-Leu-Asn-Arg-Tlr-Leu-Ser-Val-Ala.
• % Control=(X−B)/(Tot−B)×100 • % Inhibition=100—% Control • X=count per minute of a test compound well • B=count per minute of a well without containing enzyme • Tot=count per minute of a well with DMSO solvent only, without containing the test compound (MAPKAP-K2 inhibitory activity) • IC50 value=the compound concentration at 50% inhibition

Chains of the proteins cited; added tags and fusions are not shown.
UniProt P49137, whole entry: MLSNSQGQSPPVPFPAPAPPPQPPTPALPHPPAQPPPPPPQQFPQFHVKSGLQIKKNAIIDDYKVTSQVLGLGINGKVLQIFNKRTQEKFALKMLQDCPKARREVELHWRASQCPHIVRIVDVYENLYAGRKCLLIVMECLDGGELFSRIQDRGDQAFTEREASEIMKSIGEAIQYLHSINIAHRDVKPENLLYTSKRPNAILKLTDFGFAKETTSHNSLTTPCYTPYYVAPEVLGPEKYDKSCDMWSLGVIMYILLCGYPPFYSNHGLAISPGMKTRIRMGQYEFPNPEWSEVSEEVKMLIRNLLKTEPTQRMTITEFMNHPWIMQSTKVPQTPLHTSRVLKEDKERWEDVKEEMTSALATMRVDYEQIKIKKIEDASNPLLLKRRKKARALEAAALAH

pIC50	SMILES
> 5.70	CCOc1ccc(Nc2c(C)c(O[C@H]3CC[C@@H](N)CC3)nc3ccnn23)cc1
4.70 to 5.70	COc1cc(Nc2c(C)c(O[C@H]3CC[C@@H](N)CC3)nc3ccnn23)cc(OC)c1
4.70 to 5.70	CC(C)c1c(O[C@H]2CC[C@@H](N)CC2)nc2ccnn2c1Nc1ccc(F)c(Cl)c1
> 5.70	COCCOc1ccc(Nc2c(C)c(O[C@H]3CC[C@@H](N)CC3)nc3ccnn23)cc1

Second part, the compound before the results:

SMILES	pIC50
Cc1c(O[C@H]2CC[C@@H](N)CC2)nc2ccnn2c1Nc1ccc(Cc2ccccc2)cc1	> 5.70
CC(C)=CCC/C(C)=C/CNc1cc(O[C@H]2CC[C@@H](N)CC2)nc2ccnn12	4.70 to 5.70
CCOc1ccc(Nc2c(C)c(O[C@@H]3CCCNC3)nc3ccnn23)cc1	4.00 to 4.70

Source: patent US7667036B2, “Pyrazolo[1,5-a]pyrimidine derivatives” (Teijin Pharma Limited, priority 2004, dated 2010)
